# Measurements taken from PubChem BioAssay AID1347076 (National Center for Advancing Translational Sciences (NCATS), 2019).
# The entries are a selection whose mix differs from that of the whole data set. Inconclusive results are not listed. Active and inactive are the calls of the source. Calls come from the whole dose curve; as a rule, active = well fitted cell-killing curve with a large enough effect; inconclusive = small, poorly fitted or top-dose-only effect, or effect the other way; inactive = flat fitted curve, though single readings scatter.
# Test: qHTS assay for MDR1-selective chemotherapeutics: Primary screen using the drug-selected MDR subline cells KB-V1; note: nearly all actives have a fitted effect of over 60% in size
# Conditions: KB-V1 MDR cells viability, CellTiter-Glo, 72 h; series mostly up to 46.1 µM; activity change, negative = cytotoxicity: at the top concentration
# Source text: A prime difficulty in effectively treating cancer is the development of cellular resistance to multiple structurally unrelated anticancer drugs, a phenomenon known as multidrug resistance (MDR). […] Numerous strategies to overcome P-gp-mediated MDR have been explored, including the design of drugs that evade recognition and efflux, and development of inhibitors to block efflux and restore drug accumulation. […] An alternative approach is to exploit resistance by identifying drugs that target MDR cells over the non-resistant parental cells from which they were selected. […] The development of MDR1-selective agents represents a new strategy for resolving multidrug resistance, as it remains a long-standing clinical challenge for cancer chemotherapy.
# Our goal is to identify compounds that selectively kill P-gp-expressing MDR cells. We will identify MDR1-selective compounds by comparing toxicity of compounds in the screening library against parental, drug-naive (KB-3-1) adenocarcinoma cells as well as their drug-selected MDR sub-line (KB-V1). The differential toxicity of compounds against these two cell lines will be used to identify MDR1-selective compounds, whose cytotoxicity is potentiated, rather than diminished, by P-gp expression. This assay will be utilized to conduct a quantitative high-throughput screen (qHTS) in collaboration with the NIH Chemical Genomics Center to identify selective agents, and probe hits arising from the screen will be validated using secondary assays and characterized through a well-established follow-up research program. This screen was run against the entire NCGC library collection of about 400,000 compounds.
# NIH Molecular Libraries Probe Production Network [MLPCN]
# NIH Chemical Genomics Center [NCGC]
# PI: Michael Gottesman, National Cancer Institute, NIH
# Briefly, 5 microL of media containing either KB-V1 cells (columns 1-2, 4-48) are dispensed into Greiner white, treated solid-bottom 1536-well assay plates (media-only control is added to column 3). Compounds are then transferred via Kalypsys pin tool equipped with 1536-pin array (10 nL slotted pins, V&P Scientific, San Diego, CA). Following addition of compound, the plates are incubated at 37 degrees C for 72 hours. CellTiter-Glo (2.5 µL/well) is then added, and the plates are read in a ViewLux reader (Perkin-Elmer, clear luminescence filter, 1 second exposure, 1x binning) following a 10 minute incubation. All cells are dispensed in DMEM phenol-red free media containing 10% FBS.
# Library plates were screened starting from the lowest and proceeding to the highest concentration. Vehicle-only plates, with DMSO being pin-transferred to columns 5-48, will be inserted uniformly at the beginning and the end of each library in order to monitor and record any shifts in the background, which can be affected by reagent dispensers or loss in enzyme activity over time. Screening data will be corrected, normalized, and concentration-effect relationships will be derived by using publicly-available NCGC, NCATS curve fitting algorithms (http://ncgc.nih.gov/pub/openhts).
# % is set by controls: 0 for no effect and ±100 for the full control effect; potency is the fitted concentration of half-maximal effect.
Structure (SMILES),"activity change, negative = cytotoxicity",Potency
COc1cccc([N+](=O)[O-])c1[N+](=O)[O-],inactive: -2.59%,–
c1nnnn1CCn1cnnn1,inactive: 25.2%,–
CC(C)C(=O)NC(Sc1ccccc1)C(Cl)(Cl)Cl (centres undefined),inactive: 10.9%,–
O=P(Nc1nccs1)(c1ccccc1)c1ccccc1,inactive: 9.14%,–
C(Cc1nn[nH]n1)Cc1nn[nH]n1,inactive: 23.1%,–
Nc1ccc([As](=O)(O)c2ccc([N+](=O)[O-])cc2)cc1,inactive: -1.84%,–
O=C(OC1CN2CCC1CC2)c1cccc(Cl)c1 (centres undefined),inactive: -15.6%,–
O=[N+]([O-])c1ncn(CCn2cnc([N+](=O)[O-])n2)n1,inactive: -5.22%,–
CC(=O)NC(SC(=S)N(C)C)C(Cl)(Cl)Cl (centres undefined),inactive: -8.99%,–
O=[As](O)(c1ccccc1)c1ccc(O)cc1,inactive: -3.92%,–
O=P(Nc1nc2ccccc2s1)(c1ccccc1)c1ccccc1,inactive: 3.96%,–
C[C@H]1OP(=O)(Oc2ccccc2)[C@H](O)[C@H](O)[C@H]1N=[N+]=[N-] (some centres undefined),inactive: 22.8%,–
COc1ccc(N)c([N+](=O)[O-])c1[N+](=O)[O-],inactive: 3.45%,–
Nc1ccc(CCCCOc2ccccc2)cc1,inactive: -11.2%,–
CN(C)C1(CNC(=O)c2ccc(Cl)c(S(N)(=O)=O)c2)CCCCC1,inactive: 0%,–
CC(NC(=O)COC(=O)C(O)(c1ccccc1)c1ccccc1)c1ccccc1 (centres undefined),inactive: -25%,–
CN(C)C(=O)Oc1noc2ccccc12,inactive: 4.26%,–
COC(=O)c1cc2c(s1)N=C(c1ccccc1)N(C)P2(=O)N1CCOCC1 (centres undefined),inactive: 2.51%,–
CC(=O)NC(SC(=S)N(CC(C)C)CC(C)C)C(Cl)(Cl)Cl (centres undefined),inactive: -6.42%,–
O=C(OC1CN2CCC1CC2)c1ccccc1 (centres undefined),inactive: 0%,–
CCC(=O)N1C2C3N(C(=O)CC)C1C1N(C(=O)CC)C(C(N1C(=O)CC)N3C(=O)CC)N2C(=O)CC,inactive: 2.92%,–
O=P1(N(CCCl)CCCl)OCCC2CCCCN21 (centres undefined),inactive: 5.05%,–
O=C(NC1CCS(=O)(=O)C1)NP(=S)(Oc1ccccc1)Oc1ccccc1 (centres undefined),inactive: 4.09%,–
c1ccc(-c2nn[nH]n2)c(-c2nn[nH]n2)c1,inactive: 3.97%,–
O=[N+]([O-])c1cc([N+](=O)[O-])c2nc[nH]c2c1,inactive: 6.84%,–
Cc1ccc(NP(=O)(Oc2cccc(C)c2)Oc2cccc(C)c2)nc1,inactive: -3.13%,–
CC(=O)Nc1ccc([As](=O)(O)O)c(O)c1,inactive: 18.6%,–

Structure (SMILES),"activity change, negative = cytotoxicity",Potency
CC(=O)Nc1ccc(Oc2c([N+](=O)[O-])cc([N+](=O)[O-])cc2[N+](=O)[O-])cc1,inactive: 4.21%,–
CC(=O)c1ccc(N2CC2c2ccncc2)cc1 (centres undefined),inactive: 16.4%,–
N#C/C(=C\c1ccc(N(CCBr)CCBr)cc1)C(N)=O,–,active: 18.4 µM
COC(=O)C1(C)COP(=O)(NCc2ccccc2)OC1 (centres undefined),inactive: 1%,–
Cc1ccccc1CN(C)C(=O)COC(=O)C(O)(c1ccccc1)c1ccccc1,inactive: 13.6%,–
C[C@@H]1C=CCP(=O)(Oc2ccccc2)O1 (some centres undefined),inactive: 14.1%,–
CCc1cc(O)c([N+](=O)[O-])c(C)c1[N+](=O)[O-],inactive: 0%,–
CC(C)(C)C(=O)NC(Sc1ccccc1)C(Cl)(Cl)Cl (centres undefined),inactive: -1.28%,–
O=P1(Nc2nc3ccc(Cl)cc3s2)COc2ccccc2O1 (centres undefined),inactive: 14.7%,–
CCOc1ccc(C2=NCC(CBr)S2)cc1 (centres undefined),inactive: 11.7%,–
O=[N+]([O-])C1C(O)C(O)C([N+](=O)[O-])C(O)C1O (centres undefined),inactive: 6.38%,–
Nc1cc(N)c2nonc2c1[N+](=O)[O-],inactive: -16.4%,–
CC(C)CC(=O)NC(Sc1ccc(Cl)cc1)C(Cl)(Cl)Cl (centres undefined),inactive: -9.67%,–
Oc1ccccc1CNc1ccccn1,inactive: -2.58%,–
O=C(NC(Sc1ccncn1)C(Cl)(Cl)Cl)c1ccccc1 (centres undefined),inactive: -18.5%,–
COc1ccccc1OP(=O)(Nc1ccc(C)cn1)Oc1ccccc1OC,inactive: -8.88%,–
Cc1ccc(OP(=O)(Nc2nccs2)Oc2ccc(C)cc2)cc1,inactive: 8.07%,–
CN1CCCC(OC(=O)C(c2ccccc2)c2ccccc2)C1 (centres undefined),inactive: -1.17%,–
Clc1ccc(Cl)c(NC2=NCC(CBr)S2)c1 (centres undefined),inactive: 12.4%,–
NC(=O)c1cc([N+](=O)[O-])cc([N+](=O)[O-])c1N,inactive: 0.597%,–
O=[N+]([O-])c1cc2c(cc1[N+](=O)[O-])OCO2,inactive: 0.957%,–
Cc1ccc(N/C(=N/P(=O)(N2CCOCC2)N2CCOCC2)N2CCOCC2)cc1,inactive: -13.9%,–
CCN(N=Nc1nonc1N)c1nonc1N,inactive: 0%,–
Nc1cccc2ccc([As](=O)(O)O)cc12,inactive: 1.25%,–
Cc1cc(SC(NC(=O)c2ccc(F)cc2)C(Cl)(Cl)Cl)ncn1 (centres undefined),inactive: 20.1%,–
CCOP(=O)(Nc1ccccc1)OCC,inactive: 8.03%,–
Cc1ccc(NP(=O)(Oc2ccccc2F)Oc2ccccc2F)nc1,inactive: 17.6%,–

Structure (SMILES),"activity change, negative = cytotoxicity",Potency
CC(=O)Nc1ccc([As](=O)(O)O)cc1,inactive: 17.3%,–
O=C(O)c1ccccc1[As](=O)(O)O,inactive: -1.44%,–
CCCC1OP(N)(=O)OCC1CC (centres undefined),inactive: 26.2%,–
CN(C)P(=O)(N(C)C)n1c(Nc2ccccc2)nnc1-c1ccccc1,inactive: -1.97%,–
COC(=O)C1(C)COP(=O)(Nc2ccccc2)OC1 (centres undefined),inactive: 0.997%,–
O=[N+]([O-])c1cccc(NC2=NCC(CBr)S2)c1 (centres undefined),inactive: 4.11%,–
O=C(O)CNc1ccc([As](=O)(O)O)cc1,inactive: 16.7%,–
CC(C)(C)C(=O)NC(Sc1ccncn1)C(Cl)(Cl)Cl (centres undefined),inactive: -11.6%,–
O=[N+]([O-])c1ncn(CCn2ncnc2[N+](=O)[O-])n1,inactive: 6.25%,–
O=P(/N=c1/nc(-c2ccccc2)n(-c2ccccc2)s1)(Nc1ccccc1)Nc1ccccc1,inactive: -13.3%,–
Cc1cc(C=O)ccc1N(CCCl)CCCl,inactive: 2.77%,–
O=P1(N(CCCl)CCCl)OCCCS1 (centres undefined),inactive: 8.91%,–
CC(C)c1nc(Nc2ccccc2)n(P(=O)(N(C)C)N(C)C)n1,inactive: -2.89%,–
COc1cc([N+](=O)[O-])c([N+](=O)[O-])cc1OC,inactive: -2.9%,–
CC(C)=N/N=C(\N)N[N+](=O)[O-],inactive: 23.4%,–
CN(C)C(=O)OCCc1n(C)cc[n+]1C,inactive: 8.39%,–
CC1CCN(C(=O)Oc2c(Cl)cc(Cl)c3cccnc23)CC1,inactive: -27.8%,–
c1cc(-c2nn[nH]n2)ccc1-c1nn[nH]n1,inactive: 14%,–
Nc1ccc([As](=O)(O)c2ccc(N)cc2)cc1,inactive: -0.715%,–
CCN(/C(=N/P(=O)(N1CCOCC1)N1CCOCC1)N1CCOCC1)c1ccc(OC)cc1,inactive: -1.93%,–
O=[N+]([O-])c1cccc2n[nH]nc12,inactive: 5.72%,–
CC(=O)N1C2C3N(C(C)=O)C1C1N(C(C)=O)C(C(N1C(C)=O)N3C(C)=O)N2C(C)=O,inactive: 25.8%,–
Cc1ccc(NP(=O)(Oc2ccccc2)Oc2ccccc2)nc1,inactive: 11%,–
CCc1nc2c(n1)c1c(non1O)c1c2no[n+]1[O-],inactive: -14.1%,–
O=[N+]([O-])c1cc([N+](=O)[O-])c(CCNc2ccccc2)c([N+](=O)[O-])c1,inactive: -8.7%,–
